{"source": "paper PMC4882222", "about": "(Journal of medicinal chemistry, 2016)", "key": {"[1]": {"target": "HIV RT polymerase (Human immunodeficiency virus type 1 group M subtype B, UniProt P04585)", "test": "RT polymerase assay", "type": "biochemical, HIV-1"}, "[2]": {"target": "HIV RT-associated RNase H (Human immunodeficiency virus type 1 group M subtype B, UniProt P04585)", "type": "biochemical, HIV-1"}, "[3]": {"target": "HIV integrase (Human immunodeficiency virus type 1 group M subtype B, UniProt P04585)", "test": "HIV IN strand transfer assay", "type": "biochemical"}, "[4]": {"details": "RNH IC50 HTS-2, HTS-2 substrate, measures DNA 3' end directed cleavage"}, "[5]": {"details": "RNH IC50 HTS-3, HTS-3 substrate, measures RNA 5' end directed cleavage"}}, "note": "Like-named read-outs stand apart in the source and are kept apart here.", "data": [{"smiles": "COc1ccc(Cn2cc(O)c(=O)c(C(=O)O)c2)cc1", "note": "[10q, 5-Hydroxy-1-(4-methoxybenzyl)-4-oxo-1,4-dihydropyridine-3-carboxylic acid]", "values": [{"measurement": "IC50", "setting": "[1]", "value": "> 25", "unit": "µM"}, {"measurement": "IC50", "setting": "[1]; read-out: RT Pol IC50, Table 4", "value": "> 25", "unit": "µM"}]}, {"smiles": "O=C(O)c1cn(Cc2cccc(C(F)(F)F)c2)cc(O)c1=O", "note": "[10m, 5-Hydroxy-4-oxo-1-(3-(trifluoromethyl)benzyl)-1,4-dihydropyridine-3-carboxylic acid]", "values": [{"measurement": "IC50", "setting": "[2]; [4]", "value": "> 25", "unit": "µM"}, {"measurement": "IC50", "setting": "[2]; [5]", "value": "> 25", "unit": "µM"}, {"measurement": "IC50", "setting": "[1]", "value": "> 25", "unit": "µM"}, {"measurement": "IC50", "setting": "[1]; read-out: RT Pol IC50, Table 4", "value": "> 25", "unit": "µM"}, {"measurement": "IC50", "setting": "[3]", "value": "> 100", "unit": "µM"}]}, {"smiles": "O=C(O)c1cn(Cc2ccc(-c3cccnc3)cc2)cc(O)c1=O", "note": "[10z, 5-Hydroxy-4-oxo-1-(4-(pyridin-3-yl)benzyl)-1,4-dihydropyridine-3-carboxylic acid]", "values": [{"measurement": "IC50", "setting": "[1]", "value": "> 25", "unit": "µM"}, {"measurement": "IC50", "setting": "[1]; read-out: RT Pol IC50, Table 4", "value": "> 25", "unit": "µM"}]}, {"smiles": "O=C(O)c1cn(Cc2ccc(Cl)cc2)cc(O)c1=O", "note": "[10h, 1-(4-Chlorobenzyl)-5-hydroxy-4-oxo-1,4-dihydropyridine-3-carboxylic acid]", "values": [{"measurement": "IC50", "setting": "[2]; [4]", "value": "> 25", "unit": "µM"}, {"measurement": "IC50", "setting": "[2]; [5]", "value": "> 25", "unit": "µM"}, {"measurement": "IC50", "setting": "[1]", "value": "> 25", "unit": "µM"}, {"measurement": "IC50", "setting": "[1]; read-out: RT Pol IC50, Table 4", "value": "> 25", "unit": "µM"}]}]}
